# Test system: human primary HSCs
# Assay: qRT-PCR of HSC activation indexes (α-SMA and PDGFRβ mRNA) after SYK inhibitor treatment
# Assay type: cell-based
# Conditions: GS-9973 1 μM, 48 hours, two strains of human primary HSCs
structure (smiles),measurement,value
"c1cn2cc(-c3ccc4cn[nH]c4c3)nc(Nc3ccc(N4CCOCC4)cc3)c2n1 [GS-9973, Entospletinib]",mRNA level of activation marker PDGFRβ,significantly reduce
same,mRNA level of activation marker α-SMA,significantly reduce

# — patent US20180044685A1, “APPLICATION OF SYK SERVING AS THERAPEUTIC TARGET FOR HEPATIC FIBROSIS/HEPATIC CIRRHOSIS” (priority 2015, published 2018)
